Reference: patent US20040023981A1, “Salt forms with tyrosine kinase activity” (priority 2002, published 2004)
Values after ≈ are worked out from the molar mass of the structure shown. Counter-ions that a name gives are not always drawn. Like-named read-outs stand apart in the source and are kept apart here.

How the values were obtained:
[1] = for weight gain: 75% RH
[2] = for pH of the resulting aqueous solution: water solubility sample
[3] = not given; remark: listed apart in the source

Compound	hygroscopicity (in words) ([1]; 25° C.)	solid form after suspension in water (suspension time not stated)	solubility in water (drug concentration in the supernatant) [2] [µg/mL]	pH of the resulting aqueous solution [2]	weight gain [1] [% wt.]	solid form after suspension in water (3 weeks suspension)	also measured
CNC(=O)N1CCN(Cc2ccnc(Nc3ncc(C#N)s3)c2)CC1 [Form K, 4-[2-(5-cyano-thiazol-2-ylamino)-pyridin-4-ylmethyl]-piperazine-1-carboxylic acid methylamide]	nonhygroscopic	converts to form J	–	–	–	–	–
CNC(=O)N1CCN(Cc2ccnc(Nc3ncc(C#N)s3)c2)CC1 [Form J, 4-[2-(5-cyano-thiazol-2-ylamino)-pyridin-4-ylmethyl]-piperazine-1-carboxylic acid methylamide]	nonhygroscopic	no change in forms	510 (≈ 1.43 mM)	3.6	0.3	–	–
CNC(=O)N1CCN(Cc2ccnc(Nc3ncc(C#N)s3)c2)CC1 [hydrochloride ethanolate, 4-[2-(5-cyano-thiazol-2-ylamino)-pyridin-4-ylmethyl]-piperazine-1-carboxylic acid methylamide]	–	converted back to the HCl monohydrate D	–	–	–	–	–
CNC(=O)N1CCN(Cc2ccnc(Nc3ncc(C#N)s3)c2)CC1 [tartrate salt, 4-[2-(5-cyano-thiazol-2-ylamino)-pyridin-4-ylmethyl]-piperazine-1-carboxylic acid methylamide]	nonhygroscopic	–	310	3.6	0.75	no change in forms	–
CNC(=O)N1CCN(Cc2ccnc(Nc3ncc(C#N)s3)c2)CC1 [Form G, 4-[2-(5-cyano-thiazol-2-ylamino)-pyridin-4-ylmethyl]-piperazine-1-carboxylic acid methylamide]	only slightly hygroscopic	–	5100 (≈ 14.3 mM)	2.6	–	converts to Form I	stepwise weight increases ([1]; at 15% RH and 90% RH, reversible): 3 % wt.
CNC(=O)N1CCN(Cc2ccnc(Nc3ncc(C#N)s3)c2)CC1 [Form C, 4-[2-(5-cyano-thiazol-2-ylamino)-pyridin-4-ylmethyl]-piperazine-1-carboxylic acid methylamide]	not hygroscopic	–	–	–	–	–	moisture picked up ([1]; 25° C., 90% RH): about 0.6%
CNC(=O)N1CCN(Cc2ccnc(Nc3ncc(C#N)s3)c2)CC1 [Form D, 4-[2-(5-cyano-thiazol-2-ylamino)-pyridin-4-ylmethyl]-piperazine-1-carboxylic acid methylamide]	slightly hygroscopic	–	1900 (≈ 5.32 mM)	2.1	3.7	retains the same form	solid form by hot-stage XRPD ([3]; 100° C.): retained its form; solid form by hot-stage XRPD ([3]; 175° C.): changed to a different anhydrous form (Form F)
CNC(=O)N1CCN(Cc2ccnc(Nc3ncc(C#N)s3)c2)CC1 [Form F, 4-[2-(5-cyano-thiazol-2-ylamino)-pyridin-4-ylmethyl]-piperazine-1-carboxylic acid methylamide]	nonhygroscopic	–	5700 (≈ 15.9 mM)	2.7	–	–	solid form after suspension in water (2 weeks suspension): complete conversion to the monohydrate (Form D); solid form after suspension in water (2 days suspension): no conversion to the monohydrate (Form D); solid form upon storage ([3]; 25° C. and ambient RH): remains anhydrous
CNC(=O)N1CCN(Cc2ccnc(Nc3ncc(C#N)s3)c2)CC1 [Form H, 4-[2-(5-cyano-thiazol-2-ylamino)-pyridin-4-ylmethyl]-piperazine-1-carboxylic acid methylamide]	–	–	5400 (≈ 15.1 mM)	2.5	–	converts to Form I	–
CNC(=O)N1CCN(Cc2ccnc(Nc3ncc(C#N)s3)c2)CC1 [Form E, 4-[2-(5-cyano-thiazol-2-ylamino)-pyridin-4-ylmethyl]-piperazine-1-carboxylic acid methylamide]	non-hygroscopic	converted to Form D	–	–	1.06	–	–
